Assay [1] addresses T1, OX2 (Homo sapiens, UniProt O43614). The experiment in a line: Measurement of antagonism (PLAP assay), OX2. In kind it is cell-based. Details: expressed in transfected cells; host or cells: HEK-293 cells, expression vector pBabeCLIH. Here is the method:
2. Measurement of Antagonism (PLAP Assay)
The antagonistic function of the compound of the present invention to prevent the activation of OX2 and OX1 by orexin-A (OX-A), which is a natural peptide agonist, was measured using a cell-based reporter assay. […] The cells were plated at a density of 10,000 cells/well onto a non-coated 96-well plate in Dulbecco's modified Eagle medium (Sigma Cat No. D6046:10% v/v heat-inactivated fetal bovine serum was contained). The cells were cultured at 37° C. overnight, so that they could adhere to the plate. On the following day, cells were incubated with a compound of the present invention dissolved in Dulbecco's modified Eagle medium (Sigma Cat No. A8806:0.1% w/v bovine serum albumin was contained), and added to the cell plate to reach a final concentration of 0.1% dimethyl sulfoxide.
The thus obtained mixture was incubated at room temperature for 1 hour. Thereafter, human OX-A and forskolin were dissolved in the same medium as described above, which contained fetal bovine serum albumin, and the medium was then added to the cells, resulting in a final concentration of 300 nM forskolin. Subsequently, the cells were cultured at 37° C. for approximately 18 to 24 hours.

Protein sequences, listed by entry. Tags and fused reporters are not part of them.
UniProt O43614, whole entry: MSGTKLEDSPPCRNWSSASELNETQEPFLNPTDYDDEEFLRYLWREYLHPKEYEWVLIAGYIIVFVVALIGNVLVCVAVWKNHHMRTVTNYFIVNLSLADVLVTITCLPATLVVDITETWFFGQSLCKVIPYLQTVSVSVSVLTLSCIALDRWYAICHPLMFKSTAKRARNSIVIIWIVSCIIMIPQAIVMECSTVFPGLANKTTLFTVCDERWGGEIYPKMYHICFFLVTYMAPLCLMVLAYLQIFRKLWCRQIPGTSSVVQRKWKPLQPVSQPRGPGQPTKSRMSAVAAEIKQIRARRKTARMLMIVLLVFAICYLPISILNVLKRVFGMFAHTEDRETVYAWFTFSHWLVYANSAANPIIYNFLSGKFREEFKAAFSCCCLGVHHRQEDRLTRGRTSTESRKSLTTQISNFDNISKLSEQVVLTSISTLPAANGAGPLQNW

In assay [2] the target is T1, OX2. The experiment in a line: Measurement of orexin receptor-binding ability ([125I]-OX-A, cell membranes, OX2). Also on record: expressed in transfected cells; host or cells: CHO cells (membrane preparation). The conditions noted are these: OX2 (IC50) nM, membranes of recombinant CHO cells expressing OX2, 0.2 nM [125I]-OX-A. Here is the method:
1. Measurement of Orexin Receptor-Binding Ability
The assay was carried out using a 96-well Wheat Germ Agglutinin Flash Plate (PerkinElmer). The volume in a single assay well was 100 ul, and the composition of the reaction solution was as follows:
25 mM HEPES (pH 7.5), 1 mM CaCl2, 4.5 mM MgCl2, 0.5% BSA (bovine serum albumin), 0.1% sodium azide, 0.05% Tween-20, and 0.2% DMSO.
Cell membranes were prepared from recombinant CHO cells that expressed OX2 or OX1. The cell membranes were used in an amount of 5 μg protein/assay. […] Finally, the radioactivity of each well was measured using a scintillation counter (TopCount, PerkinElmer).

The record followed here is patent publication US8268848B2, “Cyclopropane compound” (Eisai R&D Management Co., Ltd., priority 2010, dated 2012).

Molecules are shown by their SMILES.

As a reminder, the Ki is a dissociation constant, usually derived from enzyme kinetics or from competition with a known ligand. As usually defined, the IC50 is the concentration that inhibits the measured activity by half. On OX2 [1], `Cc1ncc(OC[C@@]2(c3cccc(F)c3)C[C@H]2C(=O)Nc2ccc(F)cn2)c(C)n1` [Example 95, (1R,2S)-2-{[(2,4-dimethylpyrimidin-5-yl)oxy]methyl}-2-(3-fluorophenyl)-N-(5-fluoropyridin-2-yl)cyclopropanecarboxamide] yielded a Ki of 0.69 nM. Moreover, the IC50 at OX2 [2] was determined as 5.2 nM.
